From patent US12083102B2, “Method for treating inflammatory disorders” (DIMERIX BIOSCIENCE PTY LTD, priority 2011, dated 2024)

Protein sequences, listed by entry. Tags and fused reporters are not part of them.
UniProt P41597, whole entry: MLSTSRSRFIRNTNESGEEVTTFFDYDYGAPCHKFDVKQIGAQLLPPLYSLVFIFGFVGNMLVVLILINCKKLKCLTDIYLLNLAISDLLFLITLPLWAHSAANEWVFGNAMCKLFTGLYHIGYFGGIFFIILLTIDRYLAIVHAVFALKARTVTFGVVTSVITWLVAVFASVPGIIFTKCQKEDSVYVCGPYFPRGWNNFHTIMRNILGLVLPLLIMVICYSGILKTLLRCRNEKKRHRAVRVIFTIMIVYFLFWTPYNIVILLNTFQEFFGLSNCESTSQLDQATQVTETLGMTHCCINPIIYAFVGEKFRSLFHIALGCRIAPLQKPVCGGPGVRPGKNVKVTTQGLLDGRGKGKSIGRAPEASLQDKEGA

Experiments:
CCR2-Rluc8 [1] = target: T1, CCR2-Rluc8 (Homo sapiens, UniProt P41597); assay type: cell-based; set-up: expressed in transfected cells; host or cells: HEK293FT; conditions: HEK293FT cells; antagonist 10 μM, 30 min pre-incubation; 100 nM MCP-1; FIG. 5 top
Description: Data represent mean±SEM of three independent experiments performed in triplicate.
HEK293FT cells were transiently transfected with plasmids coding for β-arrestin2-Venus and the indicated receptors: CCR2-Rluc8 (top panel), AT1R-Rluc8 (middle panel) or AT1R-Rluc8 and the untagged CCR2 (bottom panel).

CCR2-Rluc8 [2] = target: T1, CCR2-Rluc8; conditions: HEK293FT cells, no AT1R, FIG. 7 top; for MCP-1-induced BRET response, CCR2-Rluc8 and β-arrestin2-Venus: antagonist 10 μM, 100 nM MCP-1

Molecule	MCP-1-induced BRET signal between CCR2-Rluc8 and β-arrestin2-Venus (CCR2-Rluc8 [1])	MCP-1-induced BRET response, CCR2-Rluc8 and β-arrestin2-Venus (CCR2-Rluc8 [2])	agonist-induced BRET, CCR2-Rluc8 and β-arrestin2-Venus (CCR2-Rluc8 [2]; 100 nM agonist)
CCCCC1=NC2(CCCC2)C(=O)N1Cc1ccc(-c2ccccc2-c2nn[nH]n2)cc1 [Irbesartan, 2-butyl-3-({4-[2-(2H-1,2,3,4-tetrazol-5-yl)phenyl]phenyl}methyl)-1,3-diazaspiro[4.4]non-1-en-4-one]	not Irbesartan substantially reduced	neither Irbesartan nor EXP3174, substantially blocked	
Cc1ccc2c(c1)C1(CCN(CCc3nc(-c4ccccc4)oc3C)CC1)OC(=O)N2 [RS504393]	substantially reduced	substantially blocked	
AngII: Angiotensin II peptide (DRVYIHPF; Angiotensin-2; UniProt P01019 25-32, looked up)			had no effect
